Measurements taken from patent US20090238760A1, “ANTISPERMATOGENIC, SPERMICIDAL AND/OR ANTIFUNGAL COMPOSITION AND METHODS OF USING THE SAME” (Research Triangle Institute, priority 2006, published 2009).

System: testes / spermatogenesis in Swiss (CD-1) mice
Experiment: Spermatogenic Index test: testes weight and spermatogenic index after a single oral dose
Type: in vivo, mouse
Conditions: for Spermatogenic Index / Testes Weight: male CD-1 mice, mean ± SEM, n=5; for Spermatogenic Index: 72 h, scale 1 to 6, 5 to 6 normal, vehicle control 5.5 ± 0.16; for Testes Weight: killed 72 h later, vehicle control 204 ± 11.9
Method: The compounds of the invention were tested in mice for their effects on spermatogenesis three days after a single oral dose by the procedure described in Cook et al (J. Med. […] Compounds active in this test have been shown also to be anti-fertility compounds. Compounds were screened for antispermatogenic activity by dosing male mice on day 1 with a gavage dose of control vehicle, positive control (compound 1) or compound of the invention. At 72 h after dosing, animals were killed and the testes were excised, trimmed of fat, and weighed. One testis was examined histologically and rated for spermatogenic potential using the Spermatogenic Index [[…]. Noden, J. Cherry and […]. Reprod. […], 72, 277 (1984)], which is a semiquantitative estimate of the sperm producing ability of the testes. The index is based on histological appearance of the spermatogenic cells in the seminiferous tubules. A scale of 1 to 6 is used with 5 to 6 being the normal status. A second assessment was based on the weight of the testes. […] Compounds were given orally to 8-week old male CD-1 mice in a single dose. Seventy-two hours later the animals were killed and the testes weighed. One testis was subjected to histological analysis and scored according to the Spermatogenic Index (SI) of Fail (see Cook et ah, J. Med. […] RTI-4587-056(l), and a vehicle control group was also analyzed.

[1] = single oral dose 5 mg/kg (racemic compounds)
[2] = single oral dose 1.2 mg/kg (racemic compound)

Substance	Spermatogenic Index [1]	Testes Weight [1] [mg]	other results
(4aRS,5SR,9bRS)-5-(4-Carboxylphenyl)-2-ethyl-2,3,4,4a,5,9b-hexahydro-8-iodo-7-methyl-1H-indeno-[1,2-c]pyridine ((R)-2,2-Dimethyl-1,3-dioxolan-4-yl)methyl ester	2.92 ·	156.0 ± 3.2	–
(4aRS,5SR,9bRS)-5-(4-Carboxylphenyl)-2-ethyl-2,3,4,4a,5,9b-hexahydro-8-iodo-7-methyl-1H-indeno-[1,2-c]pyridine ((S)-2,2-Dimethyl-1,3-dioxolan-4-yl)methyl ester	3.91 ·	152.0 ± 5.9	–
(4aRS,5SR,9bRS)-5-(4-Carboxylphenyl)-2-ethyl-2,3,4,4a,5,9b-hexahydro-8-iodo-7-methyl-1H-indeno-[1,2-c]pyridine (R)-2,3-Dihydroxy propyl ester Hydrochloride	3.04 ·	170.1 ± 11.7	–
(4aRS,5SR,9bRS)-5-(4-Carboxyphenyl)-2-ethyl-2,3,4,4a,5,9b-hexahydro-8-iodo-7-methyl-1H-indeno-[1,2-c]pyridine(S)-2,3-Dihydroxypropyl ester Hydrochloride	3.2 ·	168.2 ± 16.4	–
(4aRS, 5SR,9bRS-5-(4-Carboxylphenyl)-2-ethyl-2,3,4,4a,5,9b-hexahydro-8-iodo-7-methyl-1H-indeno-[1,2-c]pyridine n-Hexyl ester Hydrochloride	–	–	antispermatogenic activity (in words) (esters of the 8-iodo carboxylic acid, analogous to RTI-4587-073): had activity; Spermatogenic Index [2]: 3.93 ·; Testes Weight [2]: 154.4 ± 6.2 mg
(4aRS, 5SR, 9bRS)-5-(4-Carboxylphenyl)-2-ethyl-2,3,4,4a,5,9b-hexahydro-8-iodo-7-methyl-1H-indeno-[1,2-c]pyridine 3-hydroxypropyl ester Hydrochloride	3.06 ·	161.1 ± 4.1	–
(4aS, 5R,9bS)-5-(4-Carbomethoxyphenyl)-2-ethyl-2,3,4,4a,5,9b-hexahydro-7-methyl-8-(1-(2-piperidin-1-yl)ethyl)-1H-1,2,3-triazole-4-yl)-1H-ideno[1,2-c]pyridine	–	–	Spermatogenic Index (single oral dose 20 mg/kg): 5.20 ± 0.06; Testes Weight (single oral dose 20 mg/kg): 195.5 ± 12.6 mg
(4aS, 5R,9bS)-5-(4-Carbomethoxyphenyl)-2-ethyl-2,3,4,4a,5,9b-hexahydro-7-methyl-8-{2-[4-(N-pyrrolidinonyl)phenyl]ethynyl}-1H-indeno[1,2-c]pyridine	–	–	Spermatogenic Index (single oral dose 20 mg/kg): 2.75 ·; Testes Weight (single oral dose 20 mg/kg): 133.0 ± 5.7 mg
